Results taken from PMC4414788 (Chemico-biological interactions, 2015).

Target: T1, ALDH3A1 (Homo sapiens, UniProt P30838)
T1 sequence (P30838 1-453): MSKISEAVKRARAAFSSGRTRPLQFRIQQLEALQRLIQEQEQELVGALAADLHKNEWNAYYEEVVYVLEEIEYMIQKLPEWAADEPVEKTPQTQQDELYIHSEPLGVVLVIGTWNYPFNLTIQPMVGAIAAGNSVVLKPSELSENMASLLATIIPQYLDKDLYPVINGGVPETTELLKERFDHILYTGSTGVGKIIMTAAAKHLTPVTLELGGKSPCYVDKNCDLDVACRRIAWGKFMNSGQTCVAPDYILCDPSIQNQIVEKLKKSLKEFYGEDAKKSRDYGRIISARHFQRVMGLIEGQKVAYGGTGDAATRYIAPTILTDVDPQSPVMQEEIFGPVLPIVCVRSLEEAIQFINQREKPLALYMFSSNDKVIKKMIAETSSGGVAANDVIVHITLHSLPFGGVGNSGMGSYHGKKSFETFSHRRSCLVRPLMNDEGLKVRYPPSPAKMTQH
Assay: biochemical
Conditions: read-out: % of control remaining

COC(=O)C(C)Oc1ccc2c(C)cc(=O)oc2c1 (stereo not shown) [2BS4, methyl-2-[(4-methyl-2-oxo-2H-chromen-7-yl)oxy]propanoate]
remaining activity at 10 µM: 94.5%
